Columns and labels:
Cannabinoid receptor 2 = Cannabinoid receptor 2 (Homo sapiens, UniProt P34972); assay: Displacement of [3H]-CP-55940 from human recombinant CB2 receptor expressed in HEK293 cells after 90 mins by Competition binding assay; type: cell-based
Homo sapiens = species: Homo sapiens; assay: Selectivity index, ratio of Ki for recombinant human CB1 receptor to Ki for recombinant human CB2 receptor
[1] = biological target: Cannabinoid receptor 1 (Homo sapiens) (UniProt P21554); details: HEK293

Sequences of proteins named here, by UniProt entry; tags and fusion partners are left off.
UniProt P34972, whole entry: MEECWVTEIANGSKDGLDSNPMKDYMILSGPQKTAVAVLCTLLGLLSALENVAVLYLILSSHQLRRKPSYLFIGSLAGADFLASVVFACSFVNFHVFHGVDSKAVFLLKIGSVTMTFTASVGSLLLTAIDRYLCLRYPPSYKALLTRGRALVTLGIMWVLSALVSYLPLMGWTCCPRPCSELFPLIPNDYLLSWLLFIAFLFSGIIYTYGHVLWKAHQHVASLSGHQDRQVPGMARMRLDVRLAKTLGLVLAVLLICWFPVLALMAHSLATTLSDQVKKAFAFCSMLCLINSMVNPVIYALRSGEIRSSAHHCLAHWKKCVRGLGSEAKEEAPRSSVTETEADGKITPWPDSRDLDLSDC
UniProt P21554, whole entry: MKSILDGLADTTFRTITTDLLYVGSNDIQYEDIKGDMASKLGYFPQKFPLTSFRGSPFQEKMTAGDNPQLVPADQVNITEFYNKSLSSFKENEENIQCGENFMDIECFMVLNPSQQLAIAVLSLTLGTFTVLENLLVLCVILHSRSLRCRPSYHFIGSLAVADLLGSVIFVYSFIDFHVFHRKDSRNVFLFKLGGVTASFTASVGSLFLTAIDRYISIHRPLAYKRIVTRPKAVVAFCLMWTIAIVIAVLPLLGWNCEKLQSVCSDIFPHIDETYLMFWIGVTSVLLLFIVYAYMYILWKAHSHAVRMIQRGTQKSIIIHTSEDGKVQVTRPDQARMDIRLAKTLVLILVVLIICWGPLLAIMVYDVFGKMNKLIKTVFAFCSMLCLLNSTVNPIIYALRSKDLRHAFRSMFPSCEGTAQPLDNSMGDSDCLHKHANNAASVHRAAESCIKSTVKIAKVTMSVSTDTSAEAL

SMILES	Kieq (Cannabinoid receptor 2)	Ratio Ki (Homo sapiens)	Kieq [1]
CCCCCn1cc(C(=O)NC23CC4CC(CC(C4)C2)C3)c(=O)c2cc(C(C)C)ccc21	6.3 nM	194	1220 nM
CCCCCn1c(=O)c(C(=O)NC23CC4CC(CC(C4)C2)C3)c(O)c2ccccc21	0.97 nM	112	108 nM
CCCCCn1c(=O)c(C(=O)NC23CC4CC(CC(C4)C2)C3)cc2cc(C(C)C)ccc21	0.26 nM	42	11 nM
CCCCCn1cc(C(=O)NC23CC4CC(CC(C4)C2)C3)c(=O)c2cc(C(C)C)c(F)cc21	7.5 nM	> 1300	> 10000 nM
CCCCCn1c2c(c(O)c(C(=O)NC34CC5CC(CC(C5)C3)C4)c1=O)CCCC2	0.37 nM	24	8.7 nM
